Source: ChEMBL document CHEMBL1143999, “A new generation of adenosine receptor antagonists: from di- to trisubstituted aminopyrimidines” (Bioorg Med Chem, 2008)

Protein sequences, listed by entry. Tags and fused reporters are not part of them.
UniProt P30542, whole entry: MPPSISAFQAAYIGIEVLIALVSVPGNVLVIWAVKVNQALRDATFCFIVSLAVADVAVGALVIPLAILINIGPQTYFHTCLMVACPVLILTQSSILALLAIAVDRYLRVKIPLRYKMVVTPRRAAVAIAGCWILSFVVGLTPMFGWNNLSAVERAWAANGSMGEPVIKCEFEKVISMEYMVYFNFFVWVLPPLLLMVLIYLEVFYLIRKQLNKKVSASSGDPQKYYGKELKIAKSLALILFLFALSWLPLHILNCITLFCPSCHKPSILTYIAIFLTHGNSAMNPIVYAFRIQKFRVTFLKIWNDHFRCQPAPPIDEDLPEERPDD

Biological target: Adenosine receptor A1 (Homo sapiens, UniProt P30542)
Test: biochemical

Compound	Ki [nM]
Nc1nc(-c2ccccc2)cc(-c2ccc3c(c2)OCO3)n1	34.8
N#Cc1c(-c2ccccc2)nc(N)nc1-c1ccccc1	3.3
